Test results from US20090120809A1, “Nitroreductase biosensors for detecting nitro-compounds” (published 2009).

The chains behind the UniProt entries cited, without tags or fusion partners. A line that says so, or that is headed by a name, gives the form on record, which may keep a tag or linker. Residues count along the entry.
UniProt P38489, 2-217 with tags or gaps: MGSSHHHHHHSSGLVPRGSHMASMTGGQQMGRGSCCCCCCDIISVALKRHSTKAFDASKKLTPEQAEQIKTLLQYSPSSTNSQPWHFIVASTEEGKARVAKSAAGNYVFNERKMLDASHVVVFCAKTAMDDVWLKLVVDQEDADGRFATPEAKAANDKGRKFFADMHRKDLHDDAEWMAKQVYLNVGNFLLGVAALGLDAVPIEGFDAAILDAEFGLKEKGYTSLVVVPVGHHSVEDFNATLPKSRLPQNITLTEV

Key:
[1] = target: Cys6 tagged nfnB nitroreductase (Escherichia coli, UniProt P38489); assay: Nitroreductase UV assay (NADPH, 340 nm) with various nitro substrates; conditions: FIG. 5, 25° C.
[2] = target: NfnB-cys1 (Escherichia coli, UniProt P38489); assay: Amperometric response of biosensor (gold slide modified with NfnB-cys1); conditions: 2 nM DNEB in the cell; +100 mV vs SCE; 0.1 M phosphate buffer pH 7.1; co-factor dicarboxylic ferrocene

Compound	activity of Cys6 tagged nfnB nitroreductase on various substrates (substrate quality) [1]	drop in current after addition of substrate [2]
O=[N+]([O-])c1ccccc1	good substrates	–
O=[N+]([O-])c1ccccc1[N+](=O)[O-]	excellent substrates	–
2,4-dinitroethylbenzene	excellent substrates	approximately 10 nA
CCCCC(CC)CO[N+](=O)[O-] (stereo not shown)	good substrates	–
4-nitrobenzoate	excellent substrates	–
Cc1ccc([N+](=O)[O-])cc1	good substrates	–
